SMILES strings stand for the structures.

In the assay the test system is NAGS.

Turning to `OCCn1cc(-c2ccc3c(c2)CC/C3=N\O)c(-c2ccncc2)n1` [GDC-0879], the “NAGS expression, Fold change (Log 2) vs untreated” value was 0.85 Log 2.

The values above are taken from patent US20200316038A1, “METHODS AND COMPOSITIONS FOR TREATING UREA CYCLE DISORDERS, IN PARTICULAR OTC DEFICIENCY” (CAMP4 THERAPEUTICS CORPORATION, priority 2017, published 2020).
